{"source": "patent US9061077B2", "about": "(Emory University, priority 2008, dated 2015)", "assay": "Percent dose in urine in healthy volunteers", "conditions": "normal volunteers", "data": [{"substance": "technetium-99m tricarbonyl-nitrilotriacetic acid", "values": [{"measurement": "Urine 30 min 99mTc/131I", "result": 105, "unit": "%"}]}]}
